The list shows a part of the results, in another mix than the full data. Calls of active or inactive are those of the source.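 The calls were made as follows: active = inhibition above the mean of all tested compounds plus 3 SD (cut at about 43% in these data); inactive = the rest.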
target: 5-hydroxytryptamine receptor 1A (Homo sapiens) (UniProt P08908); assay: human 5-HT1a receptor antagonists, primary screen, cell-based, CHO, Ga15 NFAT-bla reporter (AID 612); details: CHO 5-HT1a Ga15 NFAT-bla reporter, antagonist mode; at 10 µM; hits give high values;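 also: receptor stimulated by 5-CT agonist at 100 nM near EC80; beta-lactamase reporter measured by ratiometric fluorescence of a cleavable substrate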

Amino acid sequences for entries named in this document (tags omitted).
UniProt P08908, whole entry, looked up: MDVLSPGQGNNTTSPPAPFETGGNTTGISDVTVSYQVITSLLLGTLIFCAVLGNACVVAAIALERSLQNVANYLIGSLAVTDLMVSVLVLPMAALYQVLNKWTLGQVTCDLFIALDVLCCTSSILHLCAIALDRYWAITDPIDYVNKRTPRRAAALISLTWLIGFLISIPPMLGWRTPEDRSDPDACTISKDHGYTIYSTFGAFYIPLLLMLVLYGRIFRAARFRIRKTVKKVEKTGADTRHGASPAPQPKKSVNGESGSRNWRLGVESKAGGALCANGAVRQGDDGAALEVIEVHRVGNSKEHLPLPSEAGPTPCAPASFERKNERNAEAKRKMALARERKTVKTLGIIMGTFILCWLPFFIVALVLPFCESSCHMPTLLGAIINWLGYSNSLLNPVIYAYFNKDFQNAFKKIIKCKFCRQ

**Q.** Which inhibition does the source give for `Cc1c2non([O-])c-2c(C)[n+](=O)[n+]1[O-]` here?
**A.** inactive: 22%

**Q.** For `CCc1nc2c(n1)c1c(non1O)c1c2no[n+]1[O-]`, which inhibition is on record?
**A.** active: 86.8%

**Q.** How did the inhibition turn out when `O=C(OC1CN2CCC1CC2)c1cccc(Cl)c1` (stereo not drawn) was run?
**A.** inactive: -8.9%

**Q.** How did the inhibition turn out when `O=P(Nc1nccs1)(c1ccccc1)c1ccccc1` was run?
**A.** inactive: -10.4%

**Q.** With `c1nnnn1CCn1cnnn1` as the compound, how does the inhibition read?
**A.** inactive: 0.1%

**Q.** Which inhibition does the source give for `O=P1(Nc2nc3ccc(Cl)cc3s2)COc2ccccc2O1` (stereo not drawn) here?
**A.** inactive: -21.9%

**Q.** How did the inhibition turn out when `COC(=O)c1cc2c(s1)N=C(c1ccccc1)N(C)P2(=O)N1CCOCC1` (stereo not drawn) was run?
**A.** inactive: -1.7%

**Q.** With `CCOP1(=S)c2c(C)nn(CCC#N)c2N=C(c2ccc(F)cc2)N1C` (stereo not drawn) as the compound, how does the inhibition read?
**A.** inactive: 9.5%

**Q.** `O=P(Nc1nccs1)(c1ccccc1)c1nc2ccccc2s1` (stereo not drawn) was tested. Which inhibition did it give?
**A.** active: 49.5%

**Q.** Which inhibition does the source give for `CCOP1(=S)c2c(C)nn(CCC#N)c2N=C(c2ccccc2F)N1C` (stereo not drawn) here?
**A.** inactive: 13.3%

**Q.** Which inhibition does the source give for `O=P1(Nc2ccccn2)COc2ccccc2OC1` here?
**A.** inactive: 5.9%

**Q.** How did the inhibition turn out when `Clc1n[nH]nc1-c1nn[nH][15n]1` was run?
**A.** inactive: -6.9%

**Q.** How did the inhibition turn out when `O=P1(Nc2ncccn2)COc2ccccc2OC1` was run?
**A.** inactive: -5.5%

**Q.** Which inhibition does the source give for `O=P1(Nc2ccc(Br)cn2)COc2ccccc2OC1` here?
**A.** inactive: 1.9%

**Q.** With `Cc1nn(-c2ccccc2)c2c1P(=O)(N1CCOCC1)N(C)C(c1ccccc1)=N2` (stereo not drawn) as the compound, how does the inhibition read?
**A.** inactive: 2.8%

**Q.** For `COP1(=S)c2c(C)nn(CCC#N)c2N=C(c2ccc(F)cc2)N1C` (stereo not drawn), which inhibition is on record?
**A.** inactive: -4%

**Q.** `O=C(COc1ccccc1)OC1CN2CCC1CC2` (stereo not drawn) was tested. Which inhibition did it give?
**A.** inactive: 4.5%

**Q.** With `O=C(OC1CN2CCC1CC2)C12CC3CC(CC(C3)C1)C2` (stereo not drawn) as the compound, how does the inhibition read?
**A.** inactive: 10.9%
